# Source: PubChem BioAssay (Broad Institute)
# INS-1E GSIS act: primary screen for activators of insulin secretion dependent on glucose, INS-1E cells, GLuc reporter luminescence; AID 743287; activation, % at 16.6 µM; INS-1E GLuc reporter insulin secretion, 2-3 h; 370,000 tested, 0.61% active;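 active means lowest replicate activation of at least 40%, so every replicate reaches that level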;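 further: 0% = median of neutral control wells and 100% = median of IBMX positive control wells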
# Yeast UUG start: yeast start codon fidelity modulation; AID 602363; activity score, % at 18.7 µM; S. cerevisiae UUG-firefly luciferase reporter, luminescence/redox ratio; 0.13% of 350,000 active;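 active means replicate mean at a twofold rise or more, about +100% in these data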;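 further: firefly luciferase made from a UUG start codon reports start codon fidelity; reporter light over untreated wells divided by growth signal over untreated wells; some hits fall short of that in this replicate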
# RAD54 inh: blocks human RAD54 Holliday junction branch migration; Q92698; FAM/BHQ fluorescence; inhibition, % at 10.4 µM; 360,000 tested, 0.14% active;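 active means mean normalized replicate activity at least 40 and at least half of replicates scoring 40 or more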;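 further: 0% = median of neutral control wells and 100% = median of positive control wells; inhibitors cause a drop in the FAM fluorescence signal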
# CASP6 VEID inh: blocks human caspase-6 cleavage activity; P55212; purified caspase-6, Z-VEID-R110 cleavage fluorescence; inhibition, % at 12.5 µM; 350,000 tested, 0.53% active;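 active means mean inhibition across replicates at least about 35%, with every replicate also reaching that limit, limit read from the data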;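 further: 0% = median of neutral control wells and 100% = no fluorescence left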
# RAD52 inh: RAD52 (human) annealing inhibition; P43351; recombinant RAD52 DNA annealing, FRET fluorescence; inhibition, % at 18.7 µM; 360,000 tested, 0.46% active;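 active means every replicate showing at least 50% inhibition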
# PglD DTNB: inhibitors of Campylobacter jejuni PglD acetyltransferase; 360,000 tested, 0.098% active; purified PglD enzyme, DTNB colorimetric CoA detection; inhibition, % at 12.5 µM; in the data active means inhibition above about 16%, passing the limit was not always enough
# Numbers without * were called inactive; . = no result given. A selection: hits, their analogues and other compounds. The true share with any hit is near 1.5%.
[1] Cc1cc2c(NC(=O)Nc3ccc(F)cc3)cccc2nn1
[2] Cc1cc2c(NC(=O)CC(C)(C)CC(=O)O)cccc2nn1
[3] Nc1ccc(S(=O)(=O)Nc2nccc(/C=C/c3cccc([N+](=O)[O-])c3)n2)cc1
[4] COc1ccc(OC)c(S(=O)(=O)Nc2cc3c(cc2N2CCCC2)n(C)c(=O)c(=O)n3C)c1
[5] Cc1ccccc1OCc1nc2ccccc2c(=O)n1/N=C/c1c[nH]c2ccccc12
[6] Cc1ccc(-c2[nH]ncc2/C=N/n2c(COc3ccccc3C)nc3ccccc3c2=O)cc1
[7] CCC(=O)N1CCCCN2[C@@H](CO)[C@H](c3ccc(-c4cccc(C(=O)N(C)C)c4)cc3)[C@@H]2C1
[8] COc1cc(Br)cc(CN2CCN(C/C=C/c3ccccc3)CC2)c1O

entry no.	1	2	3	4	5	6	7	8
INS-1E GSIS act	-8	-3	70*	2	-1	197*	-1	-48
Yeast UUG start	7	-20	-14	-5	-18	-3	-6	-14
RAD54 inh	-8	-14	3	-10	-5	-2	-5	0
CASP6 VEID inh	68*	12	-2	24	-1	.	1	38*
RAD52 inh	1	-3	-14	1	-27	.	-12	3
PglD DTNB	-3	-2	2	2	2	-4	2	4

# Arranged by value in Yeast UUG start (rising): 3 of the compounds above.
cpd	SMILES	Yeast UUG start
2	Cc1cc2c(NC(=O)CC(C)(C)CC(=O)O)cccc2nn1	-20
3	Nc1ccc(S(=O)(=O)Nc2nccc(/C=C/c3cccc([N+](=O)[O-])c3)n2)cc1	-14
7	CCC(=O)N1CCCCN2[C@@H](CO)[C@H](c3ccc(-c4cccc(C(=O)N(C)C)c4)cc3)[C@@H]2C1	-6

# Following part:
[9] OCCCNc1ncnc2scc(-c3ccc(Cl)cc3)c12
[10] NNc1ncnc2scc(-c3ccc(Cl)cc3)c12
[11] O=C(Nc1ccc(F)cc1)c1ccccc1NC(=O)C1CC=CCC1C(=O)O (configuration not stated)
[12] O=C(Nc1ccc(SC(F)F)cc1)c1cccc2nc3ccccc3nc12
[13] C[C@@H]1CN([C@@H](C)CO)C(=O)Cc2cc(NC(=O)Nc3cccc4ccccc34)ccc2O[C@H]1CN(C)Cc1ccc2c(c1)OCO2
[14] C[C@H](CO)N1C[C@H](C)[C@@H](CN(C)Cc2ccc(Cl)c(Cl)c2)Oc2ccc(NC(=O)Nc3cccc4ccccc34)cc2CC1=O
[15] C=CCOC(=O)C(=O)/C=C/c1c(C)n(C)n(-c2ccccc2)c1=O
[16] O=C(O)c1cccc(NC(=S)NC(NC(=O)c2ccccc2[N+](=O)[O-])C(Cl)(Cl)Cl)c1 (configuration not stated)

entry no.	9	10	11	12	13	14	15	16
INS-1E GSIS act	90*	8	-20	82*	-15	-1	2	-4
Yeast UUG start	-1	-18	-8	-21	10	-7	4	.
RAD54 inh	-2	8	-8	1	25	-5	0	.
CASP6 VEID inh	1	-2	37*	.	2	-2	-1	-1
RAD52 inh	-10	-114	3	.	54*	54*	-2	-9
PglD DTNB	1	-1	1	6	-5	1	0	.

# An excerpt from above with just CASP6 VEID inh:
No.	Structure	CASP6 VEID inh
9	OCCCNc1ncnc2scc(-c3ccc(Cl)cc3)c12	1
10	NNc1ncnc2scc(-c3ccc(Cl)cc3)c12	-2
11	O=C(Nc1ccc(F)cc1)c1ccccc1NC(=O)C1CC=CCC1C(=O)O (configuration not stated)	37*

# Further compounds:
[17] O=C(c1ccco1)c1coc2c1cc(O)c1ccccc12
[18] Cc1cc(C)c2c(N)c(S(=O)(=O)c3ccccc3)sc2n1
[19] CCOc1cc(/C=N/n2cnnc2)ccc1O
[20] CCOc1ccc2ccc(OCC)c(/C=N/n3cnnc3)c2c1
[21] Cc1ccc(NC(=O)Cc2ccc(-n3cccc3)cc2)c(C)c1
[22] Cc1cc(C)cc(NC(=O)Cc2ccc(-n3cccc3)cc2)c1
[23] Cc1ccc(NCc2cccc(B(O)O)c2)cc1
[24] CC(C)NC(=O)N(C)C[C@@H]1Oc2ccc(NC(=O)CCCN(C)C)cc2CC(=O)N([C@H](C)CO)C[C@@H]1C

entry no.	17	18	19	20	21	22	23	24
INS-1E GSIS act	-9	.	34	40*	16	54*	43*	.
Yeast UUG start	-24	-3	-17	-11	0	-2	8	-3
RAD54 inh	-2	-5	-2	10	4	-3	-6	3
CASP6 VEID inh	47*	.	1	-3	.	.	0	-8
RAD52 inh	-5	.	3	2	.	.	-10	-21
PglD DTNB	4	-1	0	4	0	-4	4	2

[25] Cc1cccc(Nc2nnc(SCC(=O)NC(=O)Nc3ccc4c(c3)OCCO4)s2)c1
[26] COc1ccccc1Nc1nnc(SCC(=O)NC(=O)Nc2ccc3c(c2)OCCO3)s1
[27] Nc1ccccc1S(N)(=O)=O
[28] Nc1cc(C(Cl)=C(Cl)Cl)c(S(N)(=O)=O)cc1S(N)(=O)=O
[29] COc1cc(CNCCc2ccccc2)cc(Cl)c1OCc1ccccc1
[30] COc1cc(CNCc2ccccc2)cc(Cl)c1OC
[31] COc1ccc(C2=NN(C(C)=O)C(c3cccs3)C2)cc1OC (configuration not stated)
[32] CC(C)NC(=O)Nc1ccc2c(c1)CC(=O)N([C@H](C)CO)C[C@@H](C)[C@@H](CN(C)Cc1ccc(C(=O)O)cc1)O2

entry no.	25	26	27	28	29	30	31	32
INS-1E GSIS act	1	81*	.	.	122*	-3	76*	21
Yeast UUG start	-9	.	-13	-13	-9	-14	1	-13
RAD54 inh	3	.	-14	-10	17	3	-2	2
CASP6 VEID inh	-1	.	-3	76*	1	0	0	-1
RAD52 inh	-8	.	-9	-18	20	0	2	-8
PglD DTNB	1	.	-1	-4	2	2	-3	1

[33] COc1cc(OC)c2c(-c3ccccc3)cc(C3CCCCC3)nc2c1
[34] O=C(N/N=C/c1cccc(O)c1)c1csc2ccccc12
[35] O=C(N/N=C/c1cccc(O)c1)c1ccccc1O
[36] Cn1c2ccccc2c2cc(/C=N/NC(=O)c3cc(O)ccc3O)ccc21
[37] O=c1[nH]c(=S)[nH]c2c1C(c1ccc(Br)cc1)c1c([nH]c(=S)[nH]c1=O)O2
[38] O=C1CCCC2=C1C(c1ccc(Br)cc1)c1c([nH]c(=S)[nH]c1=O)N2 (configuration not stated)
[39] COC(=O)C1CCN(c2cc(Cl)nc(N)n2)CC1
[40] C[C@@H]1CN([C@H](C)CO)C(=O)c2cc(C#CCN(C)C)cnc2O[C@H]1CN(C)S(=O)(=O)c1cn(C)cn1

entry no.	33	34	35	36	37	38	39	40
INS-1E GSIS act	42*	.	0	-7	-9	.	48*	40*
Yeast UUG start	-5	-24	.	-5	-17	-35	29	-5
RAD54 inh	3	1	.	-1	56*	6	-4	12
CASP6 VEID inh	-2	.	49*	48*	96*	.	0	0
RAD52 inh	-17	.	14	-6	-1	.	-19	-7
PglD DTNB	9	0	.	0	15	-5	-5	2

[41] C[C@H]1CN([C@@H](C)CO)C(=O)c2cc(C#CCN(C)C)cnc2O[C@H]1CN(C)C(=O)c1ccc2c(c1)OCO2
[42] C[C@@H]1CCCCO[C@H](CN(C)S(=O)(=O)c2cn(C)cn2)[C@@H](C)CN([C@H](C)CO)C(=O)c2cc(NC(=O)Cc3ccccc3)ccc2O1
[43] Nc1nnc(SCC(=O)NC23CC4CC(CC(C4)C2)C3)s1
[44] CC(=O)Nc1ccc(S(=O)(=O)Nc2cccc(-n3cnnn3)c2)cc1
[45] CC(=O)c1ccc(S(=O)(=O)Nc2cccc(-n3cnnn3)c2)cc1
[46] Cc1ccc(OCC(=O)Nc2cccc(S(=O)(=O)N3CCCCC3)c2)c([N+](=O)[O-])n1
[47] CCOC(=O)C1=C(COC(=O)CCOc2ccc(OC)cc2)NC(=O)NC1C (configuration not stated)

entry no.	41	42	43	44	45	46	47
INS-1E GSIS act	3	-3	.	20	-6	1	13
Yeast UUG start	21	-11	-6	.	-9	.	0
RAD54 inh	9	-20	-3	.	-13	.	-4
CASP6 VEID inh	57*	.	.	2	56*	.	2
RAD52 inh	5	.	.	-4	-14	.	4
PglD DTNB	-6	3	-6	.	1	.	-4
